From US6310072A (priority 1995, dated 2001)

The chains behind the UniProt entries cited, without tags or fusion partners. Where a name states a change or a piece, a line headed by the entry shows the natural chain unless it says otherwise.
UniProt P33533: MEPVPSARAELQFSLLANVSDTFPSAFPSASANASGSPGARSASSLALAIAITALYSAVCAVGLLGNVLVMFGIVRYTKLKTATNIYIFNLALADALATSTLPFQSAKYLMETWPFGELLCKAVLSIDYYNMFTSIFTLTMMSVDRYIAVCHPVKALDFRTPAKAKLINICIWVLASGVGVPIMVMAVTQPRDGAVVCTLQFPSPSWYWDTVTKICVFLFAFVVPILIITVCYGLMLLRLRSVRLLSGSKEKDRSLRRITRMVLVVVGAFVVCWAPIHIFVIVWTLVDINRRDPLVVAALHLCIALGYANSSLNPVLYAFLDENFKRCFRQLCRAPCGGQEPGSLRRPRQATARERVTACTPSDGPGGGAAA

Assays:
κ-opioid receptors = conditions: i.c.v.; cited from earlier work
δ-opioid receptor = δ-opioid receptor (Rattus norvegicus, UniProt P33533); experiment: Radioligand binding assay, displacement of [3H]DPDPE-Cl in rat brain membranes; conditions: against [3H]DPDPE
[1] = test system: fetal dorsal root ganglion sensory neurones; conditions: fM-pM antagonist with μM bimodally-acting opioid agonist such as morphine; cited from earlier work

Molecule | Antinociception profile (κ-opioid receptors) | also measured
CN(C(=O)Cc1ccc(Cl)c(Cl)c1)[C@@H]1CCCC[C@H]1N1CCCC1 (relative stereo) | antinociception characterised by a rapid onset of action and a single antinociceptive phase | –
CN(C(=O)Cc1ccccc1)[C@H]1CC[C@@]2(CCCO2)C[C@@H]1N1CCCC1 | antinociception characterised by a rapid onset of action and a single antinociceptive phase | –
enkephalin-[D-Pen^2,5 ] | – | Kd (δ-opioid receptor): 1.4 nM
CO[C@]12CC[C@@]3(C[C@@H]1C(C)(C)O)[C@H]1Cc4ccc(O)c5c4[C@@]3(CCN1CC1CC1)[C@H]2O5 | – | Action potential duration (APD) [1]: marked shortening of the action potential duration (APD)
